Laboratory results: paper PMC11703230 (bioRxiv, 2025)

Chains of the proteins cited; added tags and fusions are not shown. Residues count along the entry.
UniProt P06701, 1-850, stated change not applied: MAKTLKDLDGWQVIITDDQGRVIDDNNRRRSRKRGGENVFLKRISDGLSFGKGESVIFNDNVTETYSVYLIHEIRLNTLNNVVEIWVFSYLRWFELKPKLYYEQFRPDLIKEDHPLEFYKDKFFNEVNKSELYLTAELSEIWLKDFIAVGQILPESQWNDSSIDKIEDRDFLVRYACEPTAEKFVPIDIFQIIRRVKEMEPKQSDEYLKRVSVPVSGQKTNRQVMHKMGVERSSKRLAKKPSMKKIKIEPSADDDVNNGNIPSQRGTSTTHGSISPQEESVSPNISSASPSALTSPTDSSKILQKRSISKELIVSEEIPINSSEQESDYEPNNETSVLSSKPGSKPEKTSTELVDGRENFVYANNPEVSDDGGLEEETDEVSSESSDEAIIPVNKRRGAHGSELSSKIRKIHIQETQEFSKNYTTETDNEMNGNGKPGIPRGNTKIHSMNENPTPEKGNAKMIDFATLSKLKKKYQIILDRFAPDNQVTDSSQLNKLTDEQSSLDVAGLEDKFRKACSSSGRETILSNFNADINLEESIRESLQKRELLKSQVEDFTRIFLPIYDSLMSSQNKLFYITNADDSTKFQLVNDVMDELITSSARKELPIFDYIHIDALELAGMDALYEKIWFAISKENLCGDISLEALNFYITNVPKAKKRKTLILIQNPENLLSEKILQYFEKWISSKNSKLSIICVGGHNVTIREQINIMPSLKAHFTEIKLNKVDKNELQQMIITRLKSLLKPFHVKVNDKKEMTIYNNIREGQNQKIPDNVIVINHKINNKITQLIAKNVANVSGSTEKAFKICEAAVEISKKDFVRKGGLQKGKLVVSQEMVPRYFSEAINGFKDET

What was measured:
MBP-Sir4(744-1358) = target: T1, MBP-Sir4(744-1358) (S. cerevisiae, UniProt P11978 744-1358); assay: cross-linking
T1 sequence (looked up): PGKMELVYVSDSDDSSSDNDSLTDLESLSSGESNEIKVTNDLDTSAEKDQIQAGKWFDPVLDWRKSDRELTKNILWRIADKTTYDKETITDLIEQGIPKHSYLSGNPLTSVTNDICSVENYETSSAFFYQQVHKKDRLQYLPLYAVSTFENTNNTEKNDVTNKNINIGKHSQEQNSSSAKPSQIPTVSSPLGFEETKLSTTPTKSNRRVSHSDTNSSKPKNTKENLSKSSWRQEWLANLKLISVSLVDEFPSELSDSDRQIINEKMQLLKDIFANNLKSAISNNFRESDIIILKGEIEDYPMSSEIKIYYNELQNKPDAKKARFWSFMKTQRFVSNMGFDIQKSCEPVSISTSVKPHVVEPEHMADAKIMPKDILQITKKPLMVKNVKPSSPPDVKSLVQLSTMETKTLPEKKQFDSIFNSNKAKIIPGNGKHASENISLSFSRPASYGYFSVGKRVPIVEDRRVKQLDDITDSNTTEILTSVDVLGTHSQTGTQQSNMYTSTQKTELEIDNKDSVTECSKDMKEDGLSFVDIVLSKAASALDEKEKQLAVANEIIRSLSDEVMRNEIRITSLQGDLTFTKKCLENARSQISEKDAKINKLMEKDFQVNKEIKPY

[1] = target: Sir3 winged helix deletion (Sir3 1-850) (S. cerevisiae, UniProt P06701); assay: cross-linking

B1: Sir2 (untagged final), full-length (enzyme, S. cerevisiae, UniProt P06700 1-562, looked up)
chain: MTIPHMKYAVSKTSENKVSNTVSPTQDKDAIRKQPDDIINNDEPSHKKIKVAQPDSLRETNTTDPLGHTKAALGEVASMELKPTNDMDPLAVSAASVVSMSNDVLKPETPKGPIIISKNPSNGIFYGPSFTKRESLNARMFLKYYGAHKFLDTYLPEDLNSLYIYYLIKLLGFEVKDQALIGTINSIVHINSQERVQDLGSAISVTNVEDPLAKKQTVRLIKDLQRAINKVLCTRLRLSNFFTIDHFIQKLHTARKILVLTGAGVSTSLGIPDFRSSEGFYSKIKHLGLDDPQDVFNYNIFMHDPSVFYNIANMVLPPEKIYSPLHSFIKMLQMKGKLLRNYTQNIDNLESYAGISTDKLVQCHGSFATATCVTCHWNLPGERIFNKIRNLELPLCPYCYKKRREYFPEGYNNKVGVAASQGSMSERPPYILNSYGVLKPDITFFGEALPNKFHKSIREDILECDLLICIGTSLKVAPVSEIVNMVPSHVPQVLINRDPVKHAEFDLSLLGYCDDIAAMVAQKCGWTIPHKKWNDLKNKNFKCQEKDKGVYVVTSDEHPKTL
B1: binds (MBP-Sir4(744-1358)); binds [1].
